The text below walks through data of US20060003399A1, “High throughput actin polymerization assay” (Cytokinetics, Inc., priority 2004, published 2006).

Experiment [1] concerns the target Full length human WASP, TAP-tagged at the C-terminus (Myc-WASP-TAP) (human). Put plainly: cell-based or functional assay.
The target in experiment [2] is Full length human N-WASP, TAP-tagged at the C-terminus (Myc-N-WASP-TAP) (human). In words: cell-based or functional assay.

Usually EC50 stands for the concentration giving half of the maximal effect. Higher therefore signals lower potency in that assay. In experiment [1], GST-tev-Nck1 returned a Barbed ends of 4 nM, a Barbed ends % of max. of 94%, an EC50 of 10 nM and an acceleration of actin polymerization of 13 fold. In experiment [2], this substance came in with a Barbed ends of 3.4 nM, a Barbed ends % of max. of 75%, a half-maximal effective concentration (EC50) of 11 nM and an acceleration of actin polymerization of 13 fold.
As to GST-tev-Rac1 (enzyme), the EC50 was determined as 80 nM in experiment [1] and 31 nM in experiment [2].
